Experimental data reported in PubChem BioAssay AID258 (DTP/NCI, 2004).
Inconclusive results and toxic doses are left out.

System: CD2F1 mice, L1210 leukemia sc, survival T/C
Test: NCI In Vivo Anticancer Drug Screen. Data for tumor model L1210 Leukemia (subcutaneous) in CD2F1 (CDF1) mice
Conditions: endpoint: median survival time, higher = longer survival
Procedure: The antitumor activity of compounds was measured in mice bearing transplantable tumors. Survival or tumor size were measured and the results are expressed as the measurement made in the treated group (T) divided by the measurement made in the vehicle treated control group (C). The tumor model used in this assay is L1210 Leukemia (subcutaneous) in CD2F1 (CDF1) mice

Structure (SMILES): CN(Cc1cnc2nc(N)nc(N)c2n1)c1ccc(C(=O)N[C@@H](CCC(=O)O)C(=O)O)cc1
- T/C (dose: 0.25 mg/kg/injection, schedule: Q01DX009 (ip), vehicle: sodium bicarbonate): 106 % of control
- T/C (dose: 0.5 mg/kg/injection, schedule: Q01DX Z (sc), vehicle: sodium bicarbonate): 216 % of control
- T/C (dose: 0.84 mg/kg/injection, schedule: Q01DX Z (sc), vehicle: sodium bicarbonate): 211 % of control
- T/C (dose: 1.08 mg/kg/injection, schedule: Q01DX009 (sc), vehicle: other): 172 % of control
- T/C (dose: 1.08 mg/kg/injection, schedule: Q01DX009 (sc), vehicle: sodium bicarbonate): 172 % of control
- T/C (dose: 1.8 mg/kg/injection, schedule: Q02DX Z (sc), vehicle: other): 211 % of control
- T/C (dose: 1.95 mg/kg/injection, schedule: Q01DX Z (sc), vehicle: other): 162 % of control
- T/C (dose: 2.16 mg/kg/injection, schedule: Q01DX Z (oral), vehicle: other): 216 % of control
- T/C (dose: 3.0 mg/kg/injection, schedule: Q02DX Z (sc), vehicle: other): 211 % of control
- T/C (dose: 3.6 mg/kg/injection, schedule: Q01DX Z (oral), vehicle: other): 211 % of control
- T/C (dose: 3.61 mg/kg/injection, schedule: Q01DX Z (oral), vehicle: other): 172 % of control
- T/C (dose: 5.83 mg/kg/injection, schedule: Q01DX Z (oral), vehicle: other): 172 % of control
- T/C (dose: 6.0 mg/kg/injection, schedule: Q01DX Z (oral), vehicle: other): 172 % of control
- T/C (dose: 300.0 mg/kg/injection, schedule: Q01DX009 (ip), vehicle: sodium bicarbonate): 151 % of control
